Target: Mu-type opioid receptor (Rattus norvegicus, UniProt P33535)
Assay: Binding affinity against Opioid receptor mu 1 in P2 membrane preparation of rat brain by [3H]DAGO displacement.
Type: cell membranes

Amino acid sequences for entries named in this document (tags omitted).
UniProt P33535, whole entry: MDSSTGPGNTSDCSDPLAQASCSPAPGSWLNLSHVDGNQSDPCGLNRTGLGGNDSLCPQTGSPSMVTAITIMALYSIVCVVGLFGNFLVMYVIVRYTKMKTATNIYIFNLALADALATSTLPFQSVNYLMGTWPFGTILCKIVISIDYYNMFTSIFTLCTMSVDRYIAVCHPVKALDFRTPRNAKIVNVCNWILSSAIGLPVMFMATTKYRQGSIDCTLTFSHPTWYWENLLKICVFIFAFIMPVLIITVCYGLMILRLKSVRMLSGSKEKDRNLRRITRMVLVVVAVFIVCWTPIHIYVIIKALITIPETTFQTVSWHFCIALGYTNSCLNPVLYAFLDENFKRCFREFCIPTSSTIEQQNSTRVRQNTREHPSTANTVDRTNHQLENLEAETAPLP

SMILES: C[C@@H](NC(=O)[C@@H](N)Cc1ccc(O)cc1)C(=O)NCC(=O)N(C)[C@@H](Cc1ccccc1)C(=O)NCCO [DAMGO]
- Ki: 0.66 nM
